Like-named read-outs stand apart in the source and are kept apart here.
Conditions: room temperature, double polyethylene bags, time=0 and after 3 and 6 months

Rifaximin [Rifaximin α/β polymorphic mixture 88/12]
Stability of the polymorphic mixture (α/β ratio by DRX powder): confirmed | Stability of the polymorphic mixture (α/β ratio by DRX powder) (listed as α/β polymorphic mixture): stable

From patent US11739099B2 (CURIA IP HOLDINGS, LLC, priority 2014, dated 2023)
